The text below walks through data of patent US7582618B2 (priority 2002, dated 2009).

Where “and” joins values, the source holds several entries; their conditions need not be identical. Equal values may be shown once. Where a name gives a salt, the structure may show the parent alone. Read-outs that look alike come from different tables or passages of the source.

Series [1] has as its system BVDV (strain NADL) in MDBK cells. Put plainly: BVDV cell protection assay (CPA). The series is classed as cell-based. The following applies: Bovine viral diarrhea virus isolates and strains, 96 h, BVDV NADL cp, de novo infection, 4 days.
Series [2] deals with HCV. The following applies: ribavirin alone; Davis 2000; cited from earlier work.
Series [3] is described as follows: Cytotoxicity (cell proliferation) assay. The conditions noted are these: human, Huh7 hepatoma cells.
Series [4] is described as follows: Cytotoxicity (cell proliferation) assay. The conditions noted are these: human, HepG2 hepatoma cells, CC50, HepG2, rapid cell division.
Series [5] in a line: Cytotoxicity on uninfected cells in parallel to the CPA. The conditions noted are these: bovine, uninfected MDBK kidney cells.
A short description of series [6]: Cellular DNA or RNA synthesis ([3H]-thymidine / [3H]-uridine incorporation). The conditions noted are these: human, HepG2 cells.
Series [7] deals with BVDV. Put plainly: Exploratory cell culture antiviral studies of mUrd. The series is classed as cell-based, bovine viral diarrhea virus.
Series [8] concerns wide spectrum of other viruses. Put plainly: Exploratory cell culture antiviral studies of mUrd. The series is classed as cell-based.
The nature of series [9]: Exposure of chimpanzees to mCyd (serum HPLC). The following applies: chimpanzee, oral val-mCyd; lower limit of quantification 0.4 μM (100 ng/mL).
In another series the test system is HepG2 cells. Put plainly: Mitochondrial DNA content (mtDNA/nuclear DNA). The series is classed as cell-based, human. The conditions noted are these: HepG2, 14 days.
The next series deals with human DNA polymerase β (Homo sapiens, UniProt P06746). Put plainly: Inhibition of human DNA polymerases. The series is classed as biochemical.
In a further series the target is T1, human DNA polymerase γ (Homo sapiens, UniProt P54098).
T1 sequence (P54098 1-1239): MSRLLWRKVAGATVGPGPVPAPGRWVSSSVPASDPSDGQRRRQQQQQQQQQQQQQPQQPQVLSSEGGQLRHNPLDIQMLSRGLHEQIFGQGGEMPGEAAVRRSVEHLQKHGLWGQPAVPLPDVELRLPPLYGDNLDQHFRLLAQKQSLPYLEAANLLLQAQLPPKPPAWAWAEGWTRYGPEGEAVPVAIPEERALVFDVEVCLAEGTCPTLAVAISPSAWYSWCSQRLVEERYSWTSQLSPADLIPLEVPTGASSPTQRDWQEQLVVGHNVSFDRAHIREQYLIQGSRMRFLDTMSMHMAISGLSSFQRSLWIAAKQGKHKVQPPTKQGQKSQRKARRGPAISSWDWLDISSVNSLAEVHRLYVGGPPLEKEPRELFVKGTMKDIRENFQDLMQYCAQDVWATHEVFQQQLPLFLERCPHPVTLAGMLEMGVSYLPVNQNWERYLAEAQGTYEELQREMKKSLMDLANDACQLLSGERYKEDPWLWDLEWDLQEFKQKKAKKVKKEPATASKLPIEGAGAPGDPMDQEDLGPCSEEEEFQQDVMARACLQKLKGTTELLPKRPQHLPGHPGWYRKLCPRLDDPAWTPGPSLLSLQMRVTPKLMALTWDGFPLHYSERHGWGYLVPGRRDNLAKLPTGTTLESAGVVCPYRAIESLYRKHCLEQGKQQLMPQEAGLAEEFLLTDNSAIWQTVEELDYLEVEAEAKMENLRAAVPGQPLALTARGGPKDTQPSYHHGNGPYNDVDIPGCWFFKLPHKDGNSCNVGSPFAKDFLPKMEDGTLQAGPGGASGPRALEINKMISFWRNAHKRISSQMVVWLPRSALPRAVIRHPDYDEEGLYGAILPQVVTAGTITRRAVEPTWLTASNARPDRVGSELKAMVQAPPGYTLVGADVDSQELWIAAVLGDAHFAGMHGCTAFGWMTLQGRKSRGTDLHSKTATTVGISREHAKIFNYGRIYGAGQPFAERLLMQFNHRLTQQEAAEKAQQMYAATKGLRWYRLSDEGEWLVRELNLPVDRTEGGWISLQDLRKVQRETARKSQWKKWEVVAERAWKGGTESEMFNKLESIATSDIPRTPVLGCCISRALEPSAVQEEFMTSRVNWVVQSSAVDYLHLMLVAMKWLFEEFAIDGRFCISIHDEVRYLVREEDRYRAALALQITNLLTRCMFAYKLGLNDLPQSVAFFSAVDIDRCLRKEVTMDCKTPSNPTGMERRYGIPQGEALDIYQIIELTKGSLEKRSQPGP
The experiment in a line: biochemical.

Series [10] deals with intracellular phosphorylation of mCyd to mCyd-TP. Put plainly: Substrate competition for mCyd phosphorylation.
Another series has as its target T2, human DNA polymerase α (Homo sapiens, UniProt P09884).
T2 sequence (P09884 1-1462): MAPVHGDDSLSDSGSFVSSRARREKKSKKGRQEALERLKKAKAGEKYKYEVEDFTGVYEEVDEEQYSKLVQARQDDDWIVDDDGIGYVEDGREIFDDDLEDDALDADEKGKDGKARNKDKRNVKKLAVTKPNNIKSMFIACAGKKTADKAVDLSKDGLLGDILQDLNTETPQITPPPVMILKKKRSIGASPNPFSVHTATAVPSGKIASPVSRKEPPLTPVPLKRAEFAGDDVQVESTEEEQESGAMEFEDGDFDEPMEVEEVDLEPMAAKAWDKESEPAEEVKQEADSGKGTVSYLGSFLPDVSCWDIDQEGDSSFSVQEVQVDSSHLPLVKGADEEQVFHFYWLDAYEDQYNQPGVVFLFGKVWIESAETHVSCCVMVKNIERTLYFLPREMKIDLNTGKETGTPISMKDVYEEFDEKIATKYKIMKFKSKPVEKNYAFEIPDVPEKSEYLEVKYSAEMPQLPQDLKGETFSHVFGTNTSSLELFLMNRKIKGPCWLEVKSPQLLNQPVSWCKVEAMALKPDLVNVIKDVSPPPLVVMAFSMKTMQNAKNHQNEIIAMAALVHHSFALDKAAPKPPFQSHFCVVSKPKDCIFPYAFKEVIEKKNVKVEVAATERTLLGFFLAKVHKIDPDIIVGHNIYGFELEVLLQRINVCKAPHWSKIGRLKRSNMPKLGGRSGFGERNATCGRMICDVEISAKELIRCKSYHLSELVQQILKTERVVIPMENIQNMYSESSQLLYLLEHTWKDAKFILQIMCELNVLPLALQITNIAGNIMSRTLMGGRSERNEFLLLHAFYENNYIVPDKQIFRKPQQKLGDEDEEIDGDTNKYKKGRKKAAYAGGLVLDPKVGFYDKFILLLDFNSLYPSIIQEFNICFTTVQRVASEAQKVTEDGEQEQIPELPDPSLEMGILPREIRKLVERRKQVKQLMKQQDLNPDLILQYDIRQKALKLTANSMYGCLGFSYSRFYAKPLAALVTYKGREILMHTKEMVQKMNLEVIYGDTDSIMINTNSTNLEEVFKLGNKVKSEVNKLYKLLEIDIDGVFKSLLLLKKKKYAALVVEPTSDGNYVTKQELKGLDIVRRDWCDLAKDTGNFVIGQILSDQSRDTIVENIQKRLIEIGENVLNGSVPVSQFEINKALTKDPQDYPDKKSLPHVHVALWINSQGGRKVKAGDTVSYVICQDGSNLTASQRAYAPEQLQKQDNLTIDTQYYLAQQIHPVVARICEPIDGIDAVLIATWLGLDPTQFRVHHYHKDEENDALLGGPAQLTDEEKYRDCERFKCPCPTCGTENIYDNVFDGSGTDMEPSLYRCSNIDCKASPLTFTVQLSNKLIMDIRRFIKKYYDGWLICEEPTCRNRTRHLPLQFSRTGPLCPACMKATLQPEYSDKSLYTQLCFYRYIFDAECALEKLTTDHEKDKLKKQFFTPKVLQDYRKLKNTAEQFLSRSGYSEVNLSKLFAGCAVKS
The experiment in a line: Inhibition of human DNA polymerases. The series is classed as biochemical.

Series [11] in a line: Phosphorylation assay of nucleoside to active triphosphate. The conditions noted are these: human, HepG2 cells.
Test in series [12]: as above
The conditions noted are these: bovine, MDBK kidney cells.

The subject of series [13] is BVDV. Put plainly: Antiviral test (Table 8b). The series is classed as cell-based. The following applies: Bovine viral diarrhea virus isolates and strains; table note: BHK for Bovine Viral Diarrhea Virus.
A further series deals with DENV 2. The experiment in a line: Antiviral test (Table 8b). The following applies: Dengue virus. The series is classed as cell-based.
For the next series, the system named is CVB-2. The experiment in a line: Antiviral test (Tables 8b, 8c). The series is classed as cell-based, Coxsackievirus B-2. The following applies: Coxsackievirus.
Another series concerns REO-1. Put plainly: Antiviral test (Tables 8b, 8c). The series is classed as cell-based, double-stranded RNA viruses.
Series [14] in a line: In vitro stability in human plasma. The following applies: 37° C., after 10 hours.
Series [15] has as its system HCV. Put plainly: Clinical antiviral activity, serum HCV RNA (Amplicor HCV Monitor assay v2.0).
Series [16] relates to genotype 1 HCV (serum HCV RNA). The conditions noted are these: for reduction of mean HCV RNA level: seven days.

As a reminder, the EC50 is the concentration that produces a half-maximal response. By CC50 is commonly meant the concentration giving 50% cytotoxicity. Read a low CC50 as harm at low concentration. The molecule `NC(=O)c1ncn([C@@H]2O[C@H](CO)[C@@H](O)[C@H]2O)n1` [ribavirin, 1-β-D-ribofuranosyl-1-1,2,4-triazole-3-carboxamide, reference compound] displayed an EC50 in series [1] of over 4.3 µM. Moreover, the “effect on serum levels of HCV-RNA” value with HCV [2] is “does not lower serum levels of HCV-RNA”. Besides, the CC50 at 4 days in series [3] is 35 to 36 µM; in series [4] it was 35 to 36 µM; in series [5], 4.3 ± 0.6 µM. In addition, the CC50 amounted to 3.16 µM in [6] (probe [3H]-thymidine, CC50 DNA ([3H]Thymidine), 50% reduction of thymidine incorporation into cellular DNA) and 6.85 µM in series [6] (probe [3H]-uridine, CC50 RNA ([3H]Uridine), 50% reduction of uridine incorporation into cellular RNA).

`C[C@@]1(O)[C@H](O)[C@@H](CO)O[C@H]1n1ccc(=O)[nH]c1=O` [mUrd, β-D-2′-C-methyl-ribofuranosyl uridine]: the “potency against BVDV relative to mCyd (less potent)” value in the series on BVDV [7] is recorded as “about 10 fold”. Moreover, the “antiviral activity against a wide spectrum of other viruses” value in series [8] is reported as “essentially no antiviral activity”. The “mUrd in sera samples” value in series [9] is “No mUrd was detected”.

As usually defined, the IC50 is the concentration that inhibits the measured activity by half. `Nc1ccn([C@H]2CC[C@@H](CO)O2)c(=O)n1` [ddC, zalcitabine, reference compound]: in the series on HepG2 cells, the “reduction in mitochondrial DNA content” value was 80%. Further, the results for the IC50 on human DNA polymerase β and at human DNA polymerase γ were 4.8 µM and 2.7 µM, respectively.

On to `Nc1ccn([C@H]2C[C@H](O)[C@@H](CO)O2)c(=O)n1` [deoxycytidine], for which the EC50 in series [10] (read-out: EC50 for reduction of formation of mCyd-TP) is over 100 µM.

Take `O=c1ccn([C@@H]2O[C@H](CO)[C@@H](O)[C@H]2O)c(=O)[nH]1` [uridine]: the EC50 in series [10] (read-out: EC50 for reduction of intracellular phosphorylation of mCyd to mCyd-TP) is 20.9 ± 7.1 µM.

A word on the half-life: it is the time needed for the level to fall by half in the phase considered. A higher half-life goes with slow decline. On to `C[C@@]1(O)[C@H](O)[C@@H](COP(=O)(O)OP(=O)(O)OP(=O)(O)O)O[C@H]1n1ccc(N)nc1=O` [mCyd-TP, 2′-C-methyl-cytidine-5′-triphosphate], for which the IC50 against human DNA polymerase α is 880 to 1000 µM and > 1000 µM; at human DNA polymerase β it was 880 to 1000 µM; against human DNA polymerase γ, 880 to 1000 µM. Also, the half-life at 10 μM was 13.9 ± 2.2 h in series [11] and 7.6 ± 0.6 h in series [12].

With `CC(C)C(N)C(=O)OC1[C@@H](CO)O[C@@H](n2ccc(N)nc2=O)C1(C)O` (stereo in doubt) [val-mCyd, 2-Amino-3-methyl-butyric acid 5-(4-amino-2-oxo-2H-pyrimidine-1-yl)-4-hydroxy-2 hydroxy-methyl-4-methyl-tetrahydro-furan-3-yl ester (dihydrochloride salt)], the EC50 is 5.8 µM with BVDV [13], over 100 µM in the series on DENV 2, 12 µM with CVB-2 and 22 µM in the series with REO-1. The “input val-mCyd remaining” value in [14] came out at 2%. In addition, the “Change From Baseline (Day 1) in Log10 HCV RNA, Median” value in the series with HCV [15] (50 mg/day for 15 days, Day 2) is listed as −0.07 Log10; in the series on HCV [15] (50 mg/day for 15 days, Day 8), −0.06 Log10; with HCV [15] (50 mg/day for 15 days, Day 15), −0.10 Log10; in the series on HCV [15] (50 mg/day for 15 days, Day 22), −0.09 Log10; in the series on HCV [15] (50 mg/day for 15 days, Day 29) it was −0.04 Log10; with HCV [15] (100 mg/day for 15 days, Day 8), −0.20 Log10. Also, the “Change From Baseline (Day 1) in Log10 HCV RNA, Mean” value was −0.09 Log10 with HCV [15] (50 mg/day for 15 days, Day 22) and −0.01 Log10 with HCV [15] (50 mg/day for 15 days, Day 29). Besides, the “HCV RNA in Log10 Scale, Mean” value with HCV [15] (50 mg/day for 15 days, Day −1) was found to be 6.72 Log10. Also, the “reduction of mean HCV RNA level” value came out at 0.83 log10 copies/ml in [16] (8.3 mg/kg/day) and 1.05 log10 copies/ml in series [16] (16.6 mg/kg/day). The “mean reduction from baseline HCV viral load” value in [16] (16.6 mg/kg/day QD PO, day 7) worked out at 1.05 log10.
